Reported water solubility values for industrial, environmental and drug-like chemicals

Source: data files of OPERA 2.9 (Mansouri et al.), github.com/kmansouri/OPERA.

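OPERA's authors assembled the values from existing databases and did not measure them anew. The files give a single number for a compound and property, which may rest on several reports. Conditions of the individual experiments are not part of the data. A value may pool stereoisomers or salt forms, and the file does not say which form was measured. Unmarked limits or estimates from the upstream databases cannot be ruled out.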

Water solubility is log10 of mol/L, nominally at 25 °C; higher is more soluble.

{"smiles": "CCCCCCCC/C=C\\CCCCCCCC(=O)NCCNC(=O)CCCCCCC/C=C\\CCCCCCCC", "name": "9-Octadecenamide, N,N'-1,2-ethanediylbis-, (9Z,9'Z)-", "log solubility (log10 mol/L)": "-6.226"}
{"smiles": "CCOC(=O)/C(=C\\c1ccc([N+](=O)[O-])cc1)N=CO", "name": "Ethyl 2-formamido (4-nitrophenyl) acrylate", "log solubility (log10 mol/L)": "-2.46"}
{"smiles": "O=c1cc(O)c2ccccc2[nH]1", "name": "2(1H)-Quinolinone, 4-hydroxy-", "log solubility (log10 mol/L)": "-3.792"}
{"smiles": "CC(CC(=O)O)C(=O)Nc1ccccc1", "stereo": "stereo unspecified", "name": "4-Anilino-3-methyl-4-oxobutanoic acid", "log solubility (log10 mol/L)": "-1.237"}
{"smiles": "NC(=O)N=NC(N)=O", "name": "Azodicarbonamide", "log solubility (log10 mol/L)": "-3.521"}
{"smiles": "O=C(O)/C=C/c1ccccc1O[C@@H]1O[C@H](CO)[C@@H](O)[C@H](O)[C@H]1O", "name": "Melilotoside", "log solubility (log10 mol/L)": "-1.514"}
{"smiles": "COC(=O)Nc1nc2cc(Sc3ccccc3)ccc2[nH]1", "name": "Fenbendazole", "log solubility (log10 mol/L)": "-7.48"}
{"smiles": "CCOC(=O)Cc1cccc2ccccc12", "name": "Ethyl 1-naphthaleneacetate", "log solubility (log10 mol/L)": "-3.959"}
{"smiles": "Clc1cc(Cl)c(Oc2cccc(Cl)c2Cl)cc1Cl", "name": "2,2',3',4,5-Pentachlorodiphenylether", "log solubility (log10 mol/L)": "-7.48"}
{"smiles": "Nc1cc(S(N)(=O)=O)ccc1S(=O)(=O)CCO", "name": "3-Amino-4-(2-hydroxyethanesulfonyl)benzene-1-sulfonamide", "log solubility (log10 mol/L)": "-1.327"}
{"smiles": "CC(=O)Nc1ccc(S(=O)(=O)Cl)cc1", "name": "4-(Acetylamino)benzenesulfonyl chloride", "log solubility (log10 mol/L)": "-1.785"}
{"smiles": "Clc1ccc(Oc2ccccc2)c(Cl)c1Cl", "name": "2,3,4-Trichlorodiphenyl ether", "log solubility (log10 mol/L)": "-5.32"}
{"smiles": "CC(CCC(=O)O)CC(=O)O", "stereo": "stereo unspecified", "name": "3-Methylhexanedioic acid", "log solubility (log10 mol/L)": "0.19"}
{"smiles": "NNS(=O)(=O)c1ccc(Oc2ccc(S(=O)(=O)NN)cc2)cc1", "name": "4,4'-Oxybis(benzenesulfohydrazide)", "log solubility (log10 mol/L)": "-3.758"}
{"smiles": "Cn1c(=O)n(CC=O)c(=O)c2[nH]cnc21", "name": "1-Theobromineacetaldehyde", "log solubility (log10 mol/L)": "-1.388"}
{"smiles": "CC(C)CCCCCC(=O)OCC(COC(=O)CCCCCC(C)C)(COC(=O)CCCCCC(C)C)COC(=O)CCCCCC(C)C", "log solubility (log10 mol/L)": "-7.144"}
{"smiles": "O=[N+]([O-])c1ccc(Br)cc1", "name": "Benzene, 1-bromo-4-nitro-", "log solubility (log10 mol/L)": "-3.25"}
{"smiles": "CC(F)(F)F", "name": "1,1,1-Trifluoroethane", "log solubility (log10 mol/L)": "-2.043"}
{"smiles": "CCCCCCCCCC=O", "name": "Decanal", "log solubility (log10 mol/L)": "-3.726"}
{"smiles": "O=C(Oc1cc([N+](=O)[O-])c(Cl)cc1Cl)Oc1cc([N+](=O)[O-])c(Cl)cc1Cl", "name": "Bis(2,4-dichloro-5-nitrophenyl) carbonate", "log solubility (log10 mol/L)": "-6.813"}
{"smiles": "CN1CCN(CCCN2c3ccccc3Sc3ccccc32)CC1", "name": "Perazine", "log solubility (log10 mol/L)": "-4.75"}
{"smiles": "O=C(O)c1cc(Cl)cc(C(=O)O)c1", "name": "1,3-Benzenedicarboxylic acid, 5-chloro-", "log solubility (log10 mol/L)": "-2.84"}
{"smiles": "NC(=O)Nc1ccc(Cl)c(Cl)c1", "name": "3,4-Dichlorophenylurea", "log solubility (log10 mol/L)": "-2.959"}
{"smiles": "CC(C)C(=O)c1c(C(C)C)nn2ccccc12", "name": "Ibudilast", "log solubility (log10 mol/L)": "-3.109"}
{"smiles": "NC(C(=O)O)[C@H](N)C(=O)O", "stereo": "some centres undefined", "name": "3-Aminoaspartic acid", "log solubility (log10 mol/L)": "-2.38"}
{"smiles": "CCC(=O)NC(=O)CC", "name": "Dipropionamide", "log solubility (log10 mol/L)": "-1.713"}
{"smiles": "CC(=O)c1ccc2c(c1)N(CC(C)N(C)C)c1ccccc1S2", "stereo": "stereo unspecified", "name": "Acepromethazine", "log solubility (log10 mol/L)": "-4.427"}
{"smiles": "c1ccc2oc(-c3ccc(-c4nc5ccccc5o4)s3)nc2c1", "name": "2,5-Bis(2-benzoxazolyl)thiophene", "log solubility (log10 mol/L)": "-7.52"}
{"smiles": "O=C(O)C(F)(F)C(F)(F)C(F)(F)C(F)(F)C(F)(F)C(F)(F)C(F)(F)C(F)(F)C(F)(F)C(F)(F)C(F)(F)F", "name": "Perfluorododecanoic acid", "log solubility (log10 mol/L)": "-6.072"}
{"smiles": "CCCCC(=O)CC(=O)C(=O)O", "name": "2,4-Dioxooctanoic acid", "log solubility (log10 mol/L)": "-0.957"}
{"smiles": "Clc1cc(Cl)c2nsnc2c1Cl", "name": "2,1,3-Benzothiadiazole, 4,5,7-trichloro-", "log solubility (log10 mol/L)": "-4.98"}
{"smiles": "COc1nc(C)nc(=NC(O)=NS(=O)(=O)c2ccccc2C(=O)O)[nH]1", "name": "Metsulfuron", "log solubility (log10 mol/L)": "-3.33"}
{"smiles": "CS(=O)(=O)c1ccc(C(=O)O)c(Cl)c1", "name": "Benzoic acid, 2-chloro-4-(methylsulfonyl)-", "log solubility (log10 mol/L)": "-0.592"}
{"smiles": "CCCCCCCCCC(=O)CC(=O)C(=O)O", "name": "2,4-Dioxo-tridecanoic acid", "log solubility (log10 mol/L)": "-3.083"}
{"smiles": "CC(C)=CCCC(C)=CCCC(C)=CCO", "name": "Farnesol", "log solubility (log10 mol/L)": "-4.531"}
{"smiles": "COc1ccc(C(c2ccc(OC)cc2)C(C)[N+](=O)[O-])cc1", "stereo": "stereo unspecified", "name": "1,1-BIS(P-MEO-PH)-2-NITROPROPANE", "log solubility (log10 mol/L)": "-4.541"}
{"smiles": "CCCCCCCCCCCC", "name": "Dodecane", "log solubility (log10 mol/L)": "-7.665"}
{"smiles": "CCN(CC)CCOc1ccc(C(=C(Cl)c2ccccc2)c2ccccc2)cc1", "name": "Clomiphene", "log solubility (log10 mol/L)": "-5.991"}

Excerpt, the final 5 entries:

{"smiles": "CCCCCCCCCC(=O)CC(=O)C(=O)O", "name": "2,4-Dioxo-tridecanoic acid", "log solubility (log10 mol/L)": "-3.083"}
{"smiles": "CC(C)=CCCC(C)=CCCC(C)=CCO", "name": "Farnesol", "log solubility (log10 mol/L)": "-4.531"}
{"smiles": "COc1ccc(C(c2ccc(OC)cc2)C(C)[N+](=O)[O-])cc1", "stereo": "stereo unspecified", "name": "1,1-BIS(P-MEO-PH)-2-NITROPROPANE", "log solubility (log10 mol/L)": "-4.541"}
{"smiles": "CCCCCCCCCCCC", "name": "Dodecane", "log solubility (log10 mol/L)": "-7.665"}
{"smiles": "CCN(CC)CCOc1ccc(C(=C(Cl)c2ccccc2)c2ccccc2)cc1", "name": "Clomiphene", "log solubility (log10 mol/L)": "-5.991"}